We go through one substance from US6399349B1, “Human aminopeptidase P gene” (priority 1997, dated 2002).

Data set [1] concerns the target T1, AmP (Rattus norvegicus, UniProt Q99MA2).
T1 sequence (Q99MA2 23-650): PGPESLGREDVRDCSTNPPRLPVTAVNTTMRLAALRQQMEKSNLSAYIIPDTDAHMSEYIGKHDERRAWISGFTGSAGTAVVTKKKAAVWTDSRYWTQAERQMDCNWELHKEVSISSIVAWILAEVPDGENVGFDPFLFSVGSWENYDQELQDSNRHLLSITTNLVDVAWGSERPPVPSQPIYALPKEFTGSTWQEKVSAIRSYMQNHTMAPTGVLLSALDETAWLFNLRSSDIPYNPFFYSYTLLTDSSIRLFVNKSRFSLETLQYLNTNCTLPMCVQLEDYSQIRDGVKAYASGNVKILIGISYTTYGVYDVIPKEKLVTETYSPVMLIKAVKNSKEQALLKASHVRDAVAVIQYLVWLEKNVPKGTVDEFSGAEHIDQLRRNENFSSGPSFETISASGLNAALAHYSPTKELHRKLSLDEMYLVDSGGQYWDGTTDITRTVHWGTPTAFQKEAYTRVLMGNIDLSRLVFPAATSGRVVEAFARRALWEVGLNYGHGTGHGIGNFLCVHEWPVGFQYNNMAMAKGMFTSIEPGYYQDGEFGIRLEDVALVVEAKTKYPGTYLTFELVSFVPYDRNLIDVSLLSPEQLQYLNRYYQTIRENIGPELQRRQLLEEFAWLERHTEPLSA

Data set [2] concerns the target T2, pulmonary endothelial AmP (Rattus norvegicus, UniProt Q99MA2).
T2 sequence (Q99MA2 23-650): T1 sequence (Q99MA2 23-650)
As to conditions: in vivo.

Take “Arg-Pro-Pro-[^3H]benzylamide [APPBz-^3H]”: the “hydrolysis of APPBz-3H in isolated perfused lungs” value in data set [1] is given as “extensively hydrolyzed”. Moreover, the “mean hydrolysis of APPBz-3H” value in data set [2] is on record as “about 55%”.
